In general, CC50 refers to the concentration giving 50% cytotoxicity. A low value points to harm at low concentration.

The values that follow come from US8404651B2, “Compositions and methods for treating viral infections” (priority 2008, dated 2013).

The nature of data set [1]: MTT cytotoxicity assay, MDBK. Type of data set: cell-based. Conditions: cattle, MDBK cells, 24-hour incubation. Here is the method: (§1) Cellular cytotoxicity profile of the compounds was carried out against a panel of cell lines. Standard MTT assays were performed in 96-well plates using the Promega CellTiter96 Non-radioactive Cell Proliferation Assay Kit in conjunction with a 96-well Plate Reader (ThermoMax, Molecular devices), and MDBK, Vero, and HFF cell lines (obtained from ATCC). Several controls were employed including the nucleoside analogs 3TC, AZT, and ddC, as well as, media without drugs. SDS was used as a positive cytotoxic control. The compounds were tested in triplicate at concentrations of 100, 300, and 1000 μM. Following a 24-hour incubation of cells with the test substance, the MTT assay was carried out.

Data set [2] is described as follows: Cytotoxicity by neutral red dye uptake in replicon cultures in parallel plates. The conditions noted are these: human.
The nature of data set [3]: MTT cytotoxicity assay, Vero. Type of data set: cell-based. Conditions: African green monkey, Vero cells, 24-hour incubation. Here is the method: as §1
A general note: Formazan colour is commonly taken as a measure of viable cells.

A short description of data set [4]: In vitro cytotoxicity, HepG2. The class given is cell-based. Conditions: human, HepG2 cells.
Data set [5] can be described thus: MTT cytotoxicity assay, HFF. Type of data set: cell-based. The conditions noted are these: human, HFF cells, 24-hour incubation. Here is the method: as §1

With `COC1C(OP(=O)(OC[C@H]2O[C@@H](n3cnc4c(N)ncnc43)CC2O)SCOC(=O)C(C)(C)C)[C@@H](CO)O[C@H]1n1ccc(=O)[nH]c1=O` (some centres unmarked) [Compound 1], the CC50 at 24 h in data set [1], in data set [3] and in data set [5] was > 1000 µM throughout. In addition, the CC50 at 3 day in data set [2] was > 100 µM. Besides, in data set [4], the CC50 was > 100 µM.
